Assay results reported in article PMC12563520, “Asiatic Acid from Centella asiatica as a Potent EGFR Tyrosine Kinase Inhibitor with Anticancer Activity in NSCLC Cells Harboring Wild-Type and T790M-Mutated EGFR” (Biomolecules, 2025).

Key:
wild-type EGFR = target: T1, wild-type EGFR (Homo sapiens, UniProt P00533); experiment: ADP-Glo kinase assay, wild-type EGFR; type: biochemical; settings: read-out: IC50 kinase inhibition, Wild-Type EGFR, mean ± SEM (n = 3)
T1 construct: purchased Sigma-Aldrich SRP0239

L858R/T790M EGFR = target: T2, L858R/T790M EGFR (Homo sapiens, UniProt P00533, L858R/T790M); experiment: ADP-Glo kinase assay, double-mutant EGFR; type: biochemical; settings: read-out: IC50 kinase inhibition, L858R/T790M EGFR, mean ± SEM (n = 3)
T2 construct: purchased Sigma-Aldrich SRP0242

asiaticoside
IC50 (wild-type EGFR): > 0.08 µM
IC50 (L858R/T790M EGFR): > 0.08 µM
